From US20240368161A1, “CYCLOPROPANECARBOXAMIDE-CONTAINING COMPOUNDS AND APPLICATION THEREOF” (CGENETECH (SUZHOU, CHINA) CO., LTD., priority 2022, published 2024)

Protein sequences, listed by entry. Tags and fused reporters are not part of them. Residues count along the entry.
UniProt O60674, 826-1132 limits assumed: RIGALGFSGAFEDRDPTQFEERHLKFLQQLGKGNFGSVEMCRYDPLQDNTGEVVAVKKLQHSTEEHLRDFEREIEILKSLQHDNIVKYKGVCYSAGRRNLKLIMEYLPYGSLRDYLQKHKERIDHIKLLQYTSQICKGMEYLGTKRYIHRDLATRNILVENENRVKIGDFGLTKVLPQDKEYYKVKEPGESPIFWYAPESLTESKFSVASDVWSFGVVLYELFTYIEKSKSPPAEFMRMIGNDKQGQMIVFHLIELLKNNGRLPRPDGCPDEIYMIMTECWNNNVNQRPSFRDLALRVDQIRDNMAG
UniProt P23458, whole entry: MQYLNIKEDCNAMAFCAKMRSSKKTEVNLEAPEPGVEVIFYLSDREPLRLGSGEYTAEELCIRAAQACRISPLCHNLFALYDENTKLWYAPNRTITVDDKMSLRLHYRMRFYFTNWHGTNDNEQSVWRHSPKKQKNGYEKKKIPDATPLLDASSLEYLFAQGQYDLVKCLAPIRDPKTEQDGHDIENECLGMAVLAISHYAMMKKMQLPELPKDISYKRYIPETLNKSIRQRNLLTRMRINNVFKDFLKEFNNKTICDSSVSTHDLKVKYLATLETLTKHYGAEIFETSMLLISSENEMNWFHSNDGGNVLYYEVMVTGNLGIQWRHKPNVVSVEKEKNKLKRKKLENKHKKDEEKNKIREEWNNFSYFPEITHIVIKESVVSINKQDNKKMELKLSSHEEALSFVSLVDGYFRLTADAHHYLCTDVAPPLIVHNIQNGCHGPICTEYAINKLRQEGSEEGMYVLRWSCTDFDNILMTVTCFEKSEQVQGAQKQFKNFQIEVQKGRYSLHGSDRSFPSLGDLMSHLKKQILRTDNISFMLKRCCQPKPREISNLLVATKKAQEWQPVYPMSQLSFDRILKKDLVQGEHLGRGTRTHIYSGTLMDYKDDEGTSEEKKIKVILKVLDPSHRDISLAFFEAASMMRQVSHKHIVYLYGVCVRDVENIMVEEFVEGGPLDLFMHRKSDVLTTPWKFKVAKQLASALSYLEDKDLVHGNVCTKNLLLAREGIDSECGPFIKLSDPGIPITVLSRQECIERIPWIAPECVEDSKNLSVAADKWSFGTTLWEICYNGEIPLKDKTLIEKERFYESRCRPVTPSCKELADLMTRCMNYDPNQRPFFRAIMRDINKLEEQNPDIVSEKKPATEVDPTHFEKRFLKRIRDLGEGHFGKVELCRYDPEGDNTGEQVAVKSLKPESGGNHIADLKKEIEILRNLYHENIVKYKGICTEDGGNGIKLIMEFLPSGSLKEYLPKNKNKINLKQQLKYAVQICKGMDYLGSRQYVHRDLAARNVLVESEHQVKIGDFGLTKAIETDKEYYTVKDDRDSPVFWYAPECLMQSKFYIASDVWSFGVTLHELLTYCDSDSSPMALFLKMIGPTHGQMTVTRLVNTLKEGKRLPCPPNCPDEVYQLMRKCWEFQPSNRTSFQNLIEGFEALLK
UniProt P52333, 795-1124 limits assumed: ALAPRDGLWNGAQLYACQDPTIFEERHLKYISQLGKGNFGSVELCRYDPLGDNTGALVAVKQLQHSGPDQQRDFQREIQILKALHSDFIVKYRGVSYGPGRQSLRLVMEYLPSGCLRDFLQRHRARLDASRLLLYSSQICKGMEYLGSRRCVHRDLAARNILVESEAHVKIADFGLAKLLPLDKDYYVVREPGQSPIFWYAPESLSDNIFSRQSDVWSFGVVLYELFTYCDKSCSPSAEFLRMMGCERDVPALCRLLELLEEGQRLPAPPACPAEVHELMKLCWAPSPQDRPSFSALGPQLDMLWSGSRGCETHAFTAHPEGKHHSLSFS

Columns and labels:
Format in all cases: biochemical
[1] = molecular target: JAK2 (Homo sapiens (Human), UniProt O60674); test: JAK2 kinase inhibitory activity determination (HTRF Kinase-TK); settings: read-out: JAK2 IC50; JAK2 0.008 ng/μL, ATP 4 μM, substrate 1 μM, 2 h
[2] = molecular target: JAK1 (Homo sapiens (Human), UniProt P23458); test: JAK1 kinase inhibitory activity determination (HTRF Kinase-TK); settings: read-out: JAK1 IC50; JAK1 0.32 ng/μL, ATP 4 μM, substrate 1 μM, 4 h
[3] = molecular target: JAK3 (Homo sapiens (Human), UniProt P52333); test: JAK3 kinase inhibitory activity determination (HTRF Kinase-TK); settings: read-out: JAK3 IC50; JAK3 0.1 ng/μL, ATP 3 μM, substrate 1 μM, 3 h

Structure (SMILES)	IC50 [1] [µM]	IC50 [2] [µM]	IC50 [3] [µM]
O=C(Nc1cn2c(-c3ccc(CN4CCS(=O)(=O)CC4)cc3)cccc2n1)[C@H]1C[C@@H]1F (relative stereo) [Compound 22-2]	0.102	0.279	
O=C(Nc1nc2cccc(-c3ccc(CN4CCS(=O)(=O)CC4)cc3)n2n1)[C@H]1C[C@@H]1F (relative stereo) [Compound 23-1]	1.59	0.145	> 10
O=C(Nc1nc2cccc(-c3ccc(CN4CCS(=O)(=O)CC4)cc3)n2n1)[C@H]1C[C@@H]1F (relative stereo) [Compound 23-2]	0.873	0.199	> 10
